According to ChEMBL document CHEMBL1148402, “Anti-AIDS agents. 52. Synthesis and anti-HIV activity of hydroxymethyl (3'R,4'R)-3',4'-di-O-(S)-camphanoyl-(+)-cis-khellactone derivatives” (J Med Chem, 2004):

Assays:
Rattus norvegicus = assay: Clearance in male Sprague-Dawley rats following an intravenous bolus dose at 10-20 mg/kg; format: ADME, organism-based; details: in vivo
Method in brief: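 Adult male Sprague–Dawley rats (approx. 250 g) dosed iv at 10-20 mg/kg and orally as a suspension at 25 mg/kg. Nine 0.4 mL blood samples taken over 8 h. Plasma levels measured by reversed-phase HPLC with UV (320 nm) and fluorescence (ex 320/em 380 nm) detection. Detection limit approx. 50 ng/mL (UV) and 10 ng/mL (fluorescence) from 0.10 mL plasma. Parameters from noncompartmental analysis; half-life from the terminal log-linear phase; N=3–4 rats.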

[1] = Therapeutic index (IC50/EC50) was determined; details: read-out: TI
Method in brief: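 H9 T-cells (3 × 10^5 cells/mL) in RPMI 1640 with 10% FCS at 37 °C, 5% CO2, infected with HIV-1 IIIB (125 TCID50). Medium replaced on days 1 and 4 post-infection. Supernatant p24 antigen capture read on day 6. EC50 is the concentration suppressing replication by 50%; TI = IC50/EC50. AZT run as positive control. Averages of at least two experiments.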

CL (Rattus norvegicus): 211 L/h/kg
Compound: Cc1cc(=O)oc2c3c(ccc12)OC(C)(C)[C@H](OC(=O)C12CCC(C)(C(=O)O1)C2(C)C)[C@@H]3OC(=O)C12CCC(C)(C(=O)O1)C2(C)C (some centres not stated)
selectivity ratio [1]: 16000
